Reference: PubChem BioAssay (NCI)
Where “and” joins values, the source holds several entries; their conditions need not be identical. Equal entries are not always repeated.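 All cell lines were grown in 96-well plates and treated with compound for 48 hours. The concentration for 50% growth inhibition is given as GI50. TGI: concentration producing complete growth inhibition.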

What was measured:
Experiment in all cases: NCI-60 cell line screen, 48 h
A498 renal = test system: A498 renal
A549 NSCLC = test system: A549 NSCLC
BT-549 breast = test system: BT-549 breast
CCRF-CEM leukemia = test system: CCRF-CEM leukemia
COLO 205 colon = test system: COLO 205 colon
DU-145 prostate = test system: DU-145 prostate
EKVX NSCLC = test system: EKVX NSCLC
HOP-62 NSCLC = test system: HOP-62 NSCLC
HS 578T breast = test system: HS 578T breast
HT29 colon = test system: HT29 colon
IGROV1 ovarian = test system: IGROV1 ovarian
LOX IMVI melanoma = test system: LOX IMVI melanoma
LXFL 529 NSCLC = test system: LXFL 529 NSCLC
M14 melanoma = test system: M14 melanoma
M19-MEL melanoma = test system: M19-MEL melanoma
MCF7 breast = test system: MCF7 breast
MDA-MB-231 breast = test system: MDA-MB-231 breast
MDA-MB-435 = test system: MDA-MB-435
NCI-H322M lung = test system: NCI-H322M lung
NCI-H522 lung = test system: NCI-H522 lung
NCI/ADR-RES ovarian = test system: NCI/ADR-RES ovarian
OVCAR-3 ovarian = test system: OVCAR-3 ovarian
OVCAR-4 ovarian = test system: OVCAR-4 ovarian
OVCAR-5 ovarian = test system: OVCAR-5 ovarian
OVCAR-8 ovarian = test system: OVCAR-8 ovarian
PC-3 prostate = test system: PC-3 prostate
RPMI-8226 leukemia = test system: RPMI-8226 leukemia
RXF 393 renal = test system: RXF 393 renal
SF-268 CNS = test system: SF-268 CNS
SF-295 CNS = test system: SF-295 CNS
SK-MEL-28 melanoma = test system: SK-MEL-28 melanoma
SK-MEL-5 melanoma = test system: SK-MEL-5 melanoma
SK-OV-3 ovarian = test system: SK-OV-3 ovarian
SNB-19 CNS = test system: SNB-19 CNS
SR leukemia = test system: SR leukemia
SW-620 colon = test system: SW-620 colon
TK-10 renal = test system: TK-10 renal
U251 CNS = test system: U251 CNS
UACC-257 melanoma = test system: UACC-257 melanoma
UACC-62 melanoma = test system: UACC-62 melanoma
UO-31 renal = test system: UO-31 renal

## CN(CCCl)CCCl
A498 renal
  GI50: 2.31 µM and 5.98 µM
  TGI: 13.1 µM and 18.3 µM
A549 NSCLC
  GI50: 1.83 µM
  TGI: 36.6 µM
BT-549 breast
  GI50: 10.5 µM and 11.7 µM
  TGI: 30.7 µM and 24.2 µM
CCRF-CEM leukemia
  GI50: 0.22 µM
  TGI: 14.9 µM
COLO 205 colon
  GI50: 3.87 µM
  TGI: 12.7 µM
DU-145 prostate
  GI50: 1.65 µM
  TGI: 12.9 µM
EKVX NSCLC
  GI50: 6 µM and 5.07 µM and 10.5 µM
  TGI: 20.5 µM and 12.9 µM and 16.7 µM
HOP-62 NSCLC
  GI50: 4.95 µM
  TGI: 29.8 µM
HS 578T breast
  GI50: 44.6 µM
  TGI: > 100 µM
HT29 colon
  GI50: 1.9 µM and 4.26 µM and 8.46 µM
  TGI: 11.7 µM and 22.9 µM and 22.2 µM
IGROV1 ovarian
  GI50: 5.18 µM and 4.94 µM
  TGI: 23.2 µM and 20.3 µM
LOX IMVI melanoma
  GI50: 1.03 µM and 2.23 µM
  TGI: 11.3 µM and 20.8 µM
LXFL 529 NSCLC
  GI50: 6.52 µM
  TGI: 17.2 µM
M14 melanoma
  GI50: 3.76 µM and 7.91 µM and 4.96 µM
  TGI: 17.9 µM and 27.2 µM and 31.9 µM
M19-MEL melanoma
  GI50: 8.05 µM
  TGI: 35.8 µM
MCF7 breast
  GI50: 1.75 µM
  TGI: 20.3 µM
MDA-MB-231 breast
  GI50: 15.9 µM and 22.5 µM and 8.38 µM
  TGI: 58.8 µM and 49.2 µM and 34.7 µM
MDA-MB-435
  GI50: 12.4 µM and 7.68 µM
  TGI: 26.9 µM and 18.3 µM
NCI-H322M lung
  GI50: 6.82 µM and 18.3 µM
  TGI: 32.2 µM and 37.1 µM
NCI-H522 lung
  GI50: 3.23 µM
  TGI: 5.4 µM
NCI/ADR-RES ovarian
  GI50: 3.33 µM
  TGI: 18.5 µM
OVCAR-3 ovarian
  GI50: 11.2 µM
  TGI: 19.2 µM
OVCAR-4 ovarian
  GI50: 9.97 µM and 18.4 µM
  TGI: 43.6 µM and 25.9 µM
OVCAR-5 ovarian
  GI50: 12.9 µM and 24.1 µM
  TGI: 27.9 µM and 41.4 µM
OVCAR-8 ovarian
  GI50: 11.9 µM
  TGI: 97.1 µM
PC-3 prostate
  GI50: 3.48 µM and 12.9 µM
  TGI: 16.7 µM and 25.9 µM
RPMI-8226 leukemia
  GI50: 2.19 µM
  TGI: 25.2 µM
RXF 393 renal
  GI50: 5.46 µM
  TGI: 14.2 µM
SF-268 CNS
  GI50: 2.54 µM
  TGI: 32.3 µM
SF-295 CNS
  GI50: 2.53 µM and 3.23 µM
  TGI: 11.7 µM and 40.1 µM
SK-MEL-28 melanoma
  GI50: 9.22 µM and 11.7 µM and 20.3 µM
  TGI: 29.8 µM and 29 µM and 63.6 µM
SK-MEL-5 melanoma
  GI50: 1.88 µM
  TGI: 10.8 µM
SK-OV-3 ovarian
  GI50: 7.93 µM
  TGI: 30.7 µM
SNB-19 CNS
  GI50: 17.4 µM
  TGI: 86.9 µM
SR leukemia
  GI50: 0.148 µM
  TGI: 10.6 µM
SW-620 colon
  GI50: 1.4 µM and 5.98 µM
  TGI: 10.8 µM and 23.2 µM
TK-10 renal
  GI50: 11.3 µM and 3.72 µM
  TGI: 32.2 µM and 10.9 µM
U251 CNS
  GI50: 4.53 µM and 2.85 µM and 9.09 µM
  TGI: 35.7 µM and 25.3 µM
UACC-257 melanoma
  GI50: 3.53 µM and 11.6 µM
  TGI: 18.3 µM and 23.8 µM
UACC-62 melanoma
  GI50: 2.5 µM and 8.45 µM and 2.36 µM
  TGI: 16.6 µM and 25.2 µM and 14.2 µM
UO-31 renal
  GI50: 8.5 µM
  TGI: 30.9 µM
